15 molecules from US5637617A, “Methods for use of GABAa receptor GABAergic compounds” (The Regents of the University of California, priority 1994, dated 1997) can be followed below.

In test [1] the test system is rat cerebral cortex GABAA receptors expressed in oocytes. To be noted: for inhibitory effects on maximum IG-Actx: drug applied at 100 μM; for IC50 potency compared with fenamates: maximum IG-Actx; for inhibition of maximum / high-GABA responses / reduction of maximum IG-Actx: Example VIII; for reduction of maximum IG-Actx: drug 100 μM.
The test system is the same in test [2]. Kind of test: Effects on complete GABA concentration-response curves for IG-Actx. It counts as cell-based. As to conditions: for facilitatory effects over complete GABA concentration-response curves / inhibitory effects over complete GABA concentration-response curves: FIG. 5.

Consider `O=C(O)Cc1ccccc1Nc1c(Cl)cccc1Cl` [Diclofenac], for which, in test [1], the “inhibitory effects on maximum IG-Actx” value is listed as “weak or marginal effects”.
In the case of `O=C(O)c1cc(-c2ccc(F)cc2F)ccc1O` [Diflunisal, diflunisal], in test [1], the “inhibitory effects on maximum IG-Actx” value is recorded as “pronounced inhibition”; the “IC50 potency compared with fenamates” value was “slightly less potent than flufenamic and meclofenamic acids”.
Turning to `O=C(O)c1ccccc1Nc1cccc(C(F)(F)F)c1` [Flufenamic acid], in test [2], the “facilitatory effects over complete GABA concentration-response curves” value is “intermediate activities” and the “inhibitory effects over complete GABA concentration-response curves” value is recorded as “intermediate activities”.
With `CC(C(=O)O)c1ccc(-c2ccccc2)c(F)c1` (centres unmarked) [Flurbiprofen], in test [1], the “inhibitory effects on maximum IG-Actx” value is “weak or marginal effects”.
Consider `COc1ccc2c(c1)c(CC(=O)O)c(C)n2C(=O)c1ccc(Cl)cc1` [Indomethacin], for which, in test [1], the “inhibitory effects on maximum IG-Actx” value was “pronounced inhibition” and the “IC50 potency compared with fenamates” value is recorded as “roughly half the potency of mefenamic acid”.
Regarding `Cc1ccc(Cl)c(Nc2ccccc2C(=O)O)c1Cl` [Meclofenamate, Meclofenamic acid], in test [2], the “facilitatory effects over complete GABA concentration-response curves” value is given as “intermediate activities” and the “inhibitory effects over complete GABA concentration-response curves” value is “intermediate activities”.
As to `Cc1cccc(Nc2ccccc2C(=O)O)c1C` [Mefenamic acid], in test [2] (1 μM drug), the “shift of GABA concentration-response curve” value is “shifted the concentration-response curve without reductions in slope or maximum response”. Besides, the “reduction in maximum current / maximum responses” value in test [2] (10 μM drug) is listed as 28±8%. Besides, the “GABA concentration at transition between net facilitatory and inhibitory effects” value in test [2] (10 μM drug, FIG. 5A) was “approximately 100 μM”. Further, the “GABA concentrations at which drug had net inhibitory effects” value in test [2] (100 μM drug) is greater than 20 µM. Besides, the “GABA response threshold in presence of drug” value in test [2] (100 μM drug, threshold without drug ≈1 μM GABA) is no less than 50 nM. In test [2], the “facilitatory effects over complete GABA concentration-response curves” value was “highest efficacy in terms of facilitatory effects” and the “inhibitory effects over complete GABA concentration-response curves” value is listed as “weakest inhibitor”.
For `O=C(O)c1ccccc1Nc1cccc([N+](=O)[O-])c1` [NPAA, N-(3-nitrophenyl) anthranilic acid], in test [1], the “inhibition of maximum / high-GABA responses” value is listed as “inhibitory effects on currents elicited by high concentrations of GABA” and the “reduction of maximum IG-Actx” value is 60±11%.
Regarding `O=C(O)c1cccnc1Nc1cccc(C(F)(F)F)c1` [Niflumic acid], in test [2] (10 μM drug), the “reduction in maximum current / maximum responses” value stood at 54 ±1% and the “shift of GABA concentration-response curve” value was “no clear leftward shifts in concentration-response curves”. For the same molecule, the “GABA concentrations at which drug had net inhibitory effects” value in test [2] (10 μM drug, FIG. 5B) is greater than 20 µM. In addition, in test [2], the “facilitatory effects over complete GABA concentration-response curves” value is “weakest facilitatory effects” and the “inhibitory effects over complete GABA concentration-response curves” value is “strongest inhibitor”. For the same molecule, the “surmountability of inhibition of IG-Actx” value in test [2] (GABA increased from 3 to 30 mM, 10 or 100 μM niflumic acid) is listed as “little change in the level of inhibition”.
With `O=C(O)c1ccccc1Nc1ccccc1` [PAA, N-phenyl-anthranilic acid], in test [1], the “reduction of maximum IG-Actx” value is given as 35-45%.
Regarding `CCCCC1C(=O)N(c2ccccc2)N(c2ccccc2)C1=O` [Phenylbutazone], in test [1], the “inhibitory effects on maximum IG-Actx” value is given as “weak or marginal effects”.
The same measure, in the same setting: for `CC1=C(CC(=O)O)c2cc(F)ccc2/C1=C\c1ccc([S+](C)[O-])cc1` (centres unmarked) [Sulindac] the value was “weak or marginal effects”.
For `Cc1ccccc1Nc1ccccc1C(=O)O` [TAA, N-(O-tolyl) anthranilic acid], in test [1], the “inhibition of maximum / high-GABA responses” value is on record as “weakly inhibited maximum GABA responses” and the “reduction of maximum IG-Actx” value was “approximately 35%”.
As to `Nc1ccccc1` [aniline], the “inhibition of maximum / high-GABA responses” value in test [1] was “inactive as inhibitors”.
The same measure, in the same setting: for `Nc1ccccc1C(=O)O` [anthranilic acid] the value was “inactive as inhibitors”.
